The source made the active and inactive calls. The calls are words filed in the database; no cut-off is given here.

For the assay, the target named is T1, Nuclear receptor ROR-alpha (Homo sapiens) (UniProt P35398).
T1 sequence (whole entry): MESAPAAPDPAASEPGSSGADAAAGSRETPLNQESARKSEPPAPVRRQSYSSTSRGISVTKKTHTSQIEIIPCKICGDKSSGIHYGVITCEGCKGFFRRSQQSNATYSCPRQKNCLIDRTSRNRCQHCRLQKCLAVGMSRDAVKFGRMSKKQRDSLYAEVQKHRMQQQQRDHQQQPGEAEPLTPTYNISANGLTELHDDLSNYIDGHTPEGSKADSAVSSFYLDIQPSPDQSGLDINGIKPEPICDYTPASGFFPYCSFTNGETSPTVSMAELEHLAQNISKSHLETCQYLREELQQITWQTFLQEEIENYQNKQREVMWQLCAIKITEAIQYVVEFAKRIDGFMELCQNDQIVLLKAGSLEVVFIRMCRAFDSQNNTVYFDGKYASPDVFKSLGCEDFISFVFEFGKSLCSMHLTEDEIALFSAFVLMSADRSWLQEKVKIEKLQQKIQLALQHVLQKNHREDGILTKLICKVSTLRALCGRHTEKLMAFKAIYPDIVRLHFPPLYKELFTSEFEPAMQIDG
The assay is classed as cell-based. The conditions noted are these: HEK293T, dose 3.0 µM.

Consider `Cc1cc(-c2cc(NC(=O)Cc3ccccc3Cl)cc(C(F)(F)F)c2)ccn1`, for which the inhibition entry was “Active”.
